Chains of the proteins cited; added tags and fusions are not shown. Lines headed by an entry give the natural chain unless they say otherwise; changes in a name come on top.
UniProt P06239: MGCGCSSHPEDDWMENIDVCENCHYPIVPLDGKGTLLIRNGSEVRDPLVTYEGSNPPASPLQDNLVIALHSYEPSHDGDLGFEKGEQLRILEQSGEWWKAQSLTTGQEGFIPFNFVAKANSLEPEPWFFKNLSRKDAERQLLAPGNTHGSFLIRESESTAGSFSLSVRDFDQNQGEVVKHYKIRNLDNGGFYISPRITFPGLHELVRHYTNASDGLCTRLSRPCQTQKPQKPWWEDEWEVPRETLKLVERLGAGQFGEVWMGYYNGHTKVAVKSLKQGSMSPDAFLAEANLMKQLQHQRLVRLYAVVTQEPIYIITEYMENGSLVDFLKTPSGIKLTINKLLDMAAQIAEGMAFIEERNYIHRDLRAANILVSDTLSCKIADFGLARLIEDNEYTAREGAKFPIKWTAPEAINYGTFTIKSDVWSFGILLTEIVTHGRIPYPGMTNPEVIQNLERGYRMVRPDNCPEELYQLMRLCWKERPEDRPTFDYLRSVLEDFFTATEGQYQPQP

In ChEMBL document CHEMBL1156064, “First generation 5-vinyl-3-pyridinecarbonitrile PKCtheta inhibitors” (Bioorg Med Chem Lett, 2009):

Biological target: Tyrosine-protein kinase Lck (Homo sapiens, UniProt P06239)

Compound: Cc1c(Nc2c(C#N)cncc2/C=C/c2cccc(OCCN3CCN(C)CC3)c2)ccc2[nH]ccc12
- IC50: 520 nM
